According to publication PMC8704661, “A Structural Approach to Anti-Virulence: A Discovery Pipeline” (Microorganisms, 2021):

Legend:
[1] = biological target: T1, Plx2A (Paenibacillus larvae, UniProt M9V3B7); experiment: biochemical
[2] = biological target: T1, Plx2A; experiment: biochemical; format: binding

| Compound | IC50 [1] [µM] | Kd [2] [µM] |
| --- | --- | --- |
| COc1ccc(-c2cc(=O)c3c(O)cc(O)cc3o2)cc1 [Acacetin, 5,7-dihydroxy-2-(4-methoxyphenyl)-4H-chromen-4-one] | 28 ± 2.3 |  |
| O=c1cc(-c2ccccc2)oc2cc(O)c(O)c(O)c12 [Baicalein, 5,6,7-trihydroxy-2-phenyl-4H-chromen-4-one] | 10.7 ± 0.7 | 13.6 ± 1.5 |
